{
  "source": "patent US20040110681A1",
  "about": "“Method to identify targeting molecules” (priority 2002, published 2004)",
  "system": "brain, lung, liver, kidney, blood and spleen",
  "test": "Pharmacokinetic (PK) analysis of T7-CAGALCY and T7-lacZ phage, plaque assay",
  "assay_type": "in vivo, FVB female mice",
  "procedure": "A3-T7 was amplified in the host strain BLT-5615 in the presence of 1 mM IPTG and purified. T7-lacZ phage were amplified by large scale plating on LB plates. The plates were incubated at 25° C. overnight, and phage were eluted with phage extraction buffer (20 mM Tris-HCl, pH 8.0, 100 mM NaCl, 6 mM MgSO4) overnight at 4° C. with gentle rocking. The extracted phage were pooled and purified. In the PK study, in paragraph A below, three mice were used per time point, co-injected with 1×10^10 pfu of each phage. Time points were 2 min, 10 min, 30 min, 1 hr, 2 hr, 4 hr, 6 hr, 12 hr, and 24 hr.\n1×10^10 pfu of T7-CAGALCY and T7-lacZ phage were co-injected into FVB female mice. Mice were anesthetized with Avertin 2-4 minutes before the scheduled harvest time (the mice assigned to the 2 minute time-point were anesthetized prior to administration of the phage). The brain, lung, liver, kidney, blood and spleen were harvested at 2 min, 10 min, 30 min, 1 hr, 2 hr, 4 hr, 6 hr, 12 hr, and 24 hr. The phage contents in each organ were determined by plaque assay in the presence of X-gal in top agar.",
  "key": {"[1]": {"settings": "10 min after 1 × 10^10 of each phage per mouse"}, "[2]": {"settings": "4 hrs after 1 × 10^10 of each phage per mouse"}, "[3]": {"settings": "24 hrs after 1 × 10^10 of each phage per mouse"}},
  "data": [
    {"substance": "CAGALCY [T7-A3]", "values": [
      {"measurement": "half-life in blood", "setting": "1×10^10 pfu of each phage co-injected", "result": 8.9, "unit": "min"},
      {"measurement": "Yield of phage recovered from blood", "setting": "[1]", "result": "1.8 × 10^9 ± 2.4 × 10^8 pfu/mL"},
      {"measurement": "Yield of phage recovered from brain", "setting": "[1]", "result": "3.9 × 10^6 ± 5.7 × 10^5 pfu/gm"},
      {"measurement": "Yield of phage recovered from kidney", "setting": "[1]", "result": "1.6 × 10^8 ± 6.2 × 10^7 pfu/gm"},
      {"measurement": "Yield of phage recovered from liver", "setting": "[1]", "result": "6.0 × 10^9 ± 5.1 × 10^9 pfu/gm"},
      {"measurement": "Yield of phage recovered from lung", "setting": "[1]", "result": "9.9 × 10^7 ± 2.7 × 10^7 pfu/gm"},
      {"measurement": "Yield of phage recovered from spleen", "setting": "[1]", "result": "1.7 × 10^9 ± 3.0 × 10^8 pfu/gm"},
      {"measurement": "decrease of number of phage in the blood", "setting": "2 hr post injection", "result": "more than 3 logs"},
      {"measurement": "Yield of phage recovered from blood", "setting": "[2]", "result": "1.2 × 10^6 ± 6.1 × 10^5 pfu/mL"},
      {"measurement": "Yield of phage recovered from brain", "setting": "[2]", "result": "1.7 × 10^6 ± 1.3 × 10^6 pfu/gm"},
      {"measurement": "Yield of phage recovered from kidney", "setting": "[2]", "result": "5.1 × 10^7 ± 3.0 × 10^6 pfu/gm"},
      {"measurement": "Yield of phage recovered from liver", "setting": "[2]", "result": "4.1 × 10^7 ± 1.2 × 10^7 pfu/gm"},
      {"measurement": "Yield of phage recovered from lung", "setting": "[2]", "result": "5.2 × 10^7 ± 1.7 × 10^7 pfu/gm"},
      {"measurement": "Yield of phage recovered from spleen", "setting": "[2]", "result": "2.6 × 10^8 ± 2.0 × 10^7 pfu/gm"},
      {"measurement": "Yield of phage recovered from blood", "setting": "[3]", "result": "1.6 × 10^4 ± 1.7 × 10^4 pfu/mL"},
      {"measurement": "Yield of phage recovered from brain", "setting": "[3]", "result": "1.5 × 10^5 ± 7.7 × 10^4 pfu/gm"},
      {"measurement": "Yield of phage recovered from kidney", "setting": "[3]", "result": "3.4 × 10^6 ± 3.8 × 10^6 pfu/gm"},
      {"measurement": "Yield of phage recovered from liver", "setting": "[3]", "result": "3.4 × 10^5 ± 1.9 × 10^5 pfu/gm"},
      {"measurement": "Yield of phage recovered from lung", "setting": "[3]", "result": "5.2 × 10^6 ± 5.2 × 10^6 pfu/gm"},
      {"measurement": "Yield of phage recovered from spleen", "setting": "[3]", "result": "1.9 × 10^6 ± 1.6 × 10^5 pfu/gm"},
      {"measurement": "tissue half-life in the brain", "setting": "mouse, in vivo", "result": 8.3, "unit": "h"},
      {"measurement": "tissue half-life in the kidney", "setting": "mouse, in vivo", "result": 7.8, "unit": "h"},
      {"measurement": "tissue half-life in the liver", "setting": "mouse, in vivo", "result": 1.3, "unit": "h"},
      {"measurement": "tissue half-life in the lung", "setting": "mouse, in vivo", "result": 5.5, "unit": "h"},
      {"measurement": "tissue half-life in the spleen", "setting": "mouse, in vivo", "result": 5.8, "unit": "h"}
    ]}
  ]
}
